As usually defined, the DC50 is the concentration giving 50% degradation.

Amino acid sequences for entries named in this document (tags omitted).
UniProt P51531, whole entry: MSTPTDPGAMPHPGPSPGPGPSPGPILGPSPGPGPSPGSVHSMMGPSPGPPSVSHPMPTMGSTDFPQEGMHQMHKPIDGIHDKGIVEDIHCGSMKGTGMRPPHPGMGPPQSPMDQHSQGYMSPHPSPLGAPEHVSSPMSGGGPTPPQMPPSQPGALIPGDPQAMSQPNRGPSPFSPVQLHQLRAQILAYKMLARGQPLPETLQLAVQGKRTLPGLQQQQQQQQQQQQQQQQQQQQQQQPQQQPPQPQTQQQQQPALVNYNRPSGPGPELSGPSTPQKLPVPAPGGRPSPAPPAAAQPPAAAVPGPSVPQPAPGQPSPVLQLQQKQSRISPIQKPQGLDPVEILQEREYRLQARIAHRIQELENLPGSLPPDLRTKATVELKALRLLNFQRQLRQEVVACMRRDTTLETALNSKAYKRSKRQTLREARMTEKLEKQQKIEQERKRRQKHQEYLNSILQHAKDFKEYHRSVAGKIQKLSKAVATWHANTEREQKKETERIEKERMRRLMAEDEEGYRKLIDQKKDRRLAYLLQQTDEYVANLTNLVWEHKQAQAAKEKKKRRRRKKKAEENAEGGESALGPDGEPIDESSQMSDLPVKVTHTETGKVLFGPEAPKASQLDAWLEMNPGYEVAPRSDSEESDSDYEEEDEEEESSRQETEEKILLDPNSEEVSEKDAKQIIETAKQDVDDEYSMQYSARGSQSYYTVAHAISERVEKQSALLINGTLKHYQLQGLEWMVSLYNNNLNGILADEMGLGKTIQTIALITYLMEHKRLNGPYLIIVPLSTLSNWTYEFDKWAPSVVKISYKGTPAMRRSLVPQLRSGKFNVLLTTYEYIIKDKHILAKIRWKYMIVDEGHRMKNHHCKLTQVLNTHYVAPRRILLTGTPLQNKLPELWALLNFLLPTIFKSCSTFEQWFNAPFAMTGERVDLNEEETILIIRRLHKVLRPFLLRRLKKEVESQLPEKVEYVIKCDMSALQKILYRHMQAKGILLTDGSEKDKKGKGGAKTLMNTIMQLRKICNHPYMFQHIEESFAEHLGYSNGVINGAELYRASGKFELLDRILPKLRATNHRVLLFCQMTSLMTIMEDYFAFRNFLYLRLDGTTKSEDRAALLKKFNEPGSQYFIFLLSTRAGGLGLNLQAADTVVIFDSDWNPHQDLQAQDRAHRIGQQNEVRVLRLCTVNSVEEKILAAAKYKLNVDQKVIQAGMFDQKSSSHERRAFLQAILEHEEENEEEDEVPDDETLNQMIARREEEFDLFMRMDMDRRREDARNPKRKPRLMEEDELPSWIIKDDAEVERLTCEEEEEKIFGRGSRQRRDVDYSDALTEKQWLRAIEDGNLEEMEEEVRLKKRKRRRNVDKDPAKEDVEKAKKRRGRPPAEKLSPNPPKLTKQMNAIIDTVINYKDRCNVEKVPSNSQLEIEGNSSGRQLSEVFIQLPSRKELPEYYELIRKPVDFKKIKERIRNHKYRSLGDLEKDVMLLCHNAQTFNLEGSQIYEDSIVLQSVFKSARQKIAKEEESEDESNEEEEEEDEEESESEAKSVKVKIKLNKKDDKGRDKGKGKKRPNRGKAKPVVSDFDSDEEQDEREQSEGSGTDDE

The source of these data is patent US12539292B2, “BRM targeting compounds and associated methods of use” (Arvinas Operations, Inc., priority 2018, dated 2026).

Molecules are shown by their SMILES. Where two headings read alike, the source gives them in different places.

The target in this assay is BRM (Homo sapiens, UniProt P51531). Kind of assay: In-cell Western screen of BRM degradation in SW1573 cells (Dmax and DC50). In kind it is cell-based.

On to `Cc1ncsc1-c1ccc([C@H](C)NC(=O)[C@@H]2C[C@@H](O)CN2C(=O)[C@H](c2cc(OCC#CC34CC(CN5CC(Oc6cc(N7C8CCC7CN(c7cc(-c9ccccc9O)nnc7N)C8)ccn6)C5)(C3)C4)no2)C(C)C)cc1`, for which the DC50 (read-out: BRM DC50, target protein degradation) was more than 30 nM.

As to `Cc1ncsc1-c1ccc(CNC(=O)[C@@H]2C[C@@H](O)CN2C(=O)[C@@H](NC(=O)COCCOCCOCCOCCn2cc(-c3cc(-c4ccccc4O)nnc3N)cn2)C(C)(C)C)cc1`, the DC50 (BRM degradation, SW1573 cells) is more than 30 nM. Further, under “BRM degradation, SW1573 cells, when tested at the top concentration of between 0.3 and 10 μM”, the “Dmax (%) (% degraded)” value is “A (A > 75)”.
